Experimental data taken from ChEMBL document CHEMBL5620418.

Legend:
Mu-type opioid receptor [1] = target: T1, Mu-type opioid receptor (Homo sapiens, UniProt P35372); test: Displacement of [3H]DAMGO from human cloned mu-opioid receptor expressed in CHO cell membrane by liquid scintillation counting
[2] = target: T2, Delta-type opioid receptor (Homo sapiens, UniProt P41143); test: Displacement of [3H]DPDPE from human cloned delta-opioid receptor expressed in CHO cell membrane by liquid scintillation counting
[3] = target: T3, Kappa-type opioid receptor (Homo sapiens, UniProt P41145); test: Displacement of [3H]U69593 from human cloned kappa-opioid receptor expressed in CHO cell membrane by liquid scintillation counting
Mu-type opioid receptor [4] = target: T1, Mu-type opioid receptor; test: Binding affinity to mu-opioid receptor (unknown origin)
Mu-type opioid receptor [5] = target: T1, Mu-type opioid receptor; test: Agonist activity at human mu opioid receptor expressed in CHO cell membrane assessed as stimulation of [35S]GTPgammaS binding incubated for 1 hr by liquid scintillation counting analysis
[6] = target: T2, Delta-type opioid receptor; test: Binding affinity to delta-opioid receptor (unknown origin)
[7] = target: T3, Kappa-type opioid receptor; test: Binding affinity to kappa-opioid receptor (unknown origin)
[8] = target: T2, Delta-type opioid receptor; test: Agonist activity at human delta opioid receptor expressed in CHO cell membrane assessed as stimulation of [35S]GTPgammaS binding incubated for 1 hr by liquid scintillation counting analysis
[9] = target: T3, Kappa-type opioid receptor; test: Agonist activity at human kappa opioid receptor expressed in CHO cell membrane assessed as stimulation of [35S]GTPgammaS binding incubated for 1 hr by liquid scintillation counting analysis

Structure (SMILES)	Ki (Mu-type opioid receptor [1])	Ki [2]	Ki [3]	also measured
COc1ccc2c3c1O[C@H]1[C@@]4(OC)C=C[C@@]5(C[C@@H]4C(=O)c4ccc(NC(=O)c6ccncc6)cc4)[C@@H](C2)N(CC2CC2)CC[C@]315	40.6 nM	615 nM		
CCCC(CCC)C(=O)Nc1ccc(C(=O)[C@H]2C[C@@]34C=C[C@]2(OC)[C@@H]2Oc5c(OC)ccc6c5[C@@]23CCN(CC2CC2)[C@@H]4C6)cc1	234 nM	723 nM		
COc1ccc2c3c1O[C@H]1[C@@]4(OC)C=C[C@@]5(C[C@@H]4C(=O)c4ccc(NC(=O)C6CC6)cc4)[C@@H](C2)N(CC2CC2)CC[C@]315	65.2 nM	1030 nM	1210 nM	
COc1ccc2c3c1O[C@H]1[C@@]4(OC)C=C[C@@]5(C[C@@H]4C(=O)c4ccc(NC(=O)c6cccnc6)cc4)[C@@H](C2)N(CC2CC2)CC[C@]315	186 nM	2030 nM		
COc1cccc(C(=O)Nc2ccc(C(=O)[C@H]3C[C@@]45C=C[C@]3(OC)[C@@H]3Oc6c(OC)ccc7c6[C@@]34CCN(CC3CC3)[C@@H]5C7)cc2)c1	586 nM	1270 nM		
COc1ccc2c3c1O[C@@H]1[C@]34CCN(CC3CC3)[C@H](C2)[C@]42C=C[C@@]1(OC)C(C(=O)c1ccccc1)C2 (stereo not given in full)				Ki (Mu-type opioid receptor [4]): 130 nM; EC50 (Mu-type opioid receptor [5]): 130 nM; Ki [6]: 774 nM; Ki [7]: 0.4 nM; EC50 [8]: 678 nM; EC50 [9]: 1 nM
COc1ccc2c3c1O[C@H]1[C@@]4(OC)C=C[C@@]5(C[C@@H]4C(=O)c4ccc(NCc6ccccc6)cc4)[C@@H](C2)N(CC2CC2)CC[C@]315	340 nM	> 5000 nM	104 nM	
COc1ccc2c3c1O[C@H]1[C@@]4(OC)C=C[C@@]5(C[C@@H]4C(=O)c4ccc(NC(=O)c6ccsc6)cc4)[C@@H](C2)N(CC2CC2)CC[C@]315	57.3 nM	2900 nM		
COc1ccc2c3c1O[C@H]1[C@@]4(OC)C=C[C@@]5(C[C@@H]4C(=O)c4ccc(NC(C)=O)cc4)[C@@H](C2)N(CC2CC2)CC[C@]315	66.9 nM	1040 nM	2920 nM	
COc1ccc2c3c1O[C@H]1[C@@]4(OC)C=C[C@@]5(C[C@@H]4C(=O)c4ccc(NC(=O)Cc6ccccc6)cc4)[C@@H](C2)N(CC2CC2)CC[C@]315	163 nM	923 nM	503 nM	
COc1ccc2c3c1O[C@H]1[C@@]4(OC)C=C[C@@]5(C[C@@H]4C(=O)c4ccc(NC(=O)C(C)(C)C)cc4)[C@@H](C2)N(CC2CC2)CC[C@]315	35.2 nM	319 nM	1590 nM	
COc1ccc2c3c1O[C@H]1[C@@]4(OC)C=C[C@@]5(C[C@@H]4C(=O)c4ccc(NC(=O)OCc6ccccc6)cc4)[C@@H](C2)N(CC2CC2)CC[C@]315	672 nM	> 10000 nM	322 nM	
COc1ccc2c3c1O[C@H]1[C@@]4(OC)C=C[C@@]5(C[C@@H]4C(=O)c4ccc(NC(=O)c6ccc(C(F)(F)F)cc6)cc4)[C@@H](C2)N(CC2CC2)CC[C@]315	1120 nM	> 10000 nM	2550 nM	
COc1ccc2c3c1O[C@H]1[C@@]4(OC)C=C[C@@]5(C[C@@H]4C(=O)c4ccc(NC(=O)c6cnn(C)c6)cc4)[C@@H](C2)N(CC2CC2)CC[C@]315	518 nM	552 nM	2430 nM	
